The values below are quoted from earlier work in patent publication US8193209B2 (dated 2012).

Amino acid sequences for entries named in this document (tags omitted). Residues count along the entry.
UniProt P23219, 24-599: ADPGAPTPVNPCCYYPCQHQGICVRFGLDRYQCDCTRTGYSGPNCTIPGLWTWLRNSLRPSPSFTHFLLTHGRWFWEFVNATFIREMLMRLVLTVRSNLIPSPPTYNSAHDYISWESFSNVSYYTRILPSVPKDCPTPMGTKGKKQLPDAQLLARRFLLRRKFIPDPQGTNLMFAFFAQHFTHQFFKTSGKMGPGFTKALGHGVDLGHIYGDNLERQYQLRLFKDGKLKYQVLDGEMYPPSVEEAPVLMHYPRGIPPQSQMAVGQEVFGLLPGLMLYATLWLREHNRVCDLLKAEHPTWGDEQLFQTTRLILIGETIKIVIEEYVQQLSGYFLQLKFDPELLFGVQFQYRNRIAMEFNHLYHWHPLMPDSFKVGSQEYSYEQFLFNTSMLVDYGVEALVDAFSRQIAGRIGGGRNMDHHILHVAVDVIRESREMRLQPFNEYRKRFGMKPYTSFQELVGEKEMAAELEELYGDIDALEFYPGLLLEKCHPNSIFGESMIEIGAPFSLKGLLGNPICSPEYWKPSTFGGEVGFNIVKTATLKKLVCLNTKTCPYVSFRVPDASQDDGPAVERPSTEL

The series deals with COX-1 (Homo sapiens, UniProt P23219). The settings on record: read-out: COX-1 IC50; cited from earlier work.

By IC50 is commonly meant the concentration that gives 50% inhibition. For the compound `CS(=O)(=O)c1ccc(C2=C(c3ccccc3)C(=O)OC2)cc1` [Vioxx], the IC50 was 369 µM.
